IL-2 act = activators of IL-2; activation, % (series mostly up to about 46 µM); hit rate 0.065% among 360,000; IL-2 activation reporter assay, cell-based qHTS; stimulated with anti-CD3/CD4/CD28 beads; in transgenic mouse T cells; in the data active means activation above about 50%; inconclusive means mostly about 30% to 49%; further: 0% is about no effect
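Quantitative HTS in unstimulated transgenic mouse T cells, with memory T cells as non-tolerant control and PMA/ionomycin as tolerance-bypass control. Compound pretreatment lasted 60 minutes before 18 h bead stimulation; EGFP/DsRed fluorescence read.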
PINK1 expr mod = changes PINK1 expression. PINK1 immunofluorescence, high-content cytometry, 24 h. Potency, µM (doses to about 76.6 µM), without a hit: at the top dose activation (PINK1 increase), hits mostly activators. hit rate 0.2% among 410,000; active means well fitted activation curve with a large enough effect; inconclusive means small, poorly fitted or top-dose-only effect; cell line not stated here; further: potency means the concentration at half of the fitted maximal effect; % of control where 0% means no effect; nearly all actives have a fitted effect of over 65% in size
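Decision-based qHTS: stable cells, 24 h exposure to five compound concentrations, CCCP as control. Fixed cells stained for PINK1 plus nuclear, mitochondrial and cell markers, cytometer read.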
TCR act = T cell receptor activation | primary human leukocytes, anti-CD3, IL-2 HTRF, 48 h | Potency, µM (series often up to 9.22 µM), inactives show at the top dose activation of IL-2 secretion, usual class: activators | 330,000 tested, under 10 active; further: % of control where 0% means no effect
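HTRF read-out of IL-2 secretion: europium cryptate donor excited at 320nm, d2 acceptor emission at 665nm. Cells were primary human leukocytes incubated 48 hr with compounds and a-CD3 beads, supplying TCR signal only.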
RXFP1 ag = RXFP1 (human) receptor agonism; Q9HBX9; HEK293T-RXFP1 cAMP TR-FRET, 30 min; response scale: percent of porcine relaxin response, buffer zero; Potency, µM (titrated, usually from 57.5 µM), for the others: at the highest dose activation, most hits filed as activators; hit rate 0.3% among 370,000; AID 2676; further: potency means the concentration at half of the fitted maximal effect; on the % scale 0 is the no-effect control and ±100 the full control effect; nearly all actives have a fitted effect of over 60% in size
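Agonist response is measured as cAMP accumulation in an RXFP1-transfected HEK293T line under PDE4 inhibition. Values are scaled between buffer-only and 29 nM porcine relaxin, and EC50s come from standard Hill equation fits.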
miR-21 reporter = raises the signal of a miR-21 reporter | HeLa miR-21 FLuc reporter, luciferase, 48 h | Potency, µM (highest dose often 38.3 µM), for inactives: at the highest dose reporter change, positive = more light | 340,000 tested, under 10 active | AID 2288; active = well fitted rising curve with a large enough effect; inconclusive = small, poorly fitted or top-dose-only effect; inactive = no such curve, though single readings can be large or run the other way;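 also: % of control where 0% means no effect; miR-21 action dims this reporter so a rising signal means less miR-21 action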
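Compounds were titrated across several concentrations (up to approximately 40 uM) and incubated 48 hours with HeLa miR-21-FLuc reporter cells (miR-21 target sequence downstream of FLuc, endogenous miR-21). Readout was firefly luciferase luminescence after lytic detection reagent.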
RXFP1 antagonist = antagonists of human relaxin receptor RXFP1; Q9HBX9; HEK293-RXFP1, relaxin-stimulated cAMP HTRF, 30 min; stronger effect = lower value; activity change, negative = inhibition, % at 57.5 µM; hit rate 0.59% among 350,000;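 active means activity change of -60% or lower, but not beyond a set lower limit; inconclusive means change between -60% and -40%, or beyond the set limit; inactive means change above -40%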; further: on the % scale 0 is the no-effect control and ±100 the full control effect
Active calls of the source: *; ? = inconclusive; . = no result given; ! = repeats disagree; [ ] = dose if it differs, or a comment. In the library only some 0.78% were active in any assay of this set; here they are far more common. Unless noted, the call rests on the fitted dose curve; in most records, active means well fitted curve in the direction sought with a large enough effect; inconclusive means small, poorly fitted or top-dose-only effect, or another doubt; inactive means no such curve, though single readings can be large; an effect the other way counts as inactive or inconclusive.

[1] CCN(CC)c1ccc(C(=C2C=CC(=[N+](CC)CC)C=C2)c2ccc(S(=O)(=O)O)cc2S(=O)(=O)[O-])cc1
[2] CCC(Oc1ccc(F)cc1)C(=O)Nc1nc(-c2ccc(F)cc2)ns1 (stereo not given)
[3] COCc1c(C(=O)N2CCC(c3ccccc3)CC2)cnn1-c1nccc(-c2cc(C)sc2C)n1
[4] Cc1cc(C)c(OCCCCNCc2ccccc2)c(Cl)c1
[5] C=C(C)COc1ccc(-c2[nH]ncc2-c2ccc(OC)c(OC)c2)c(O)c1
[6] C=C(C)COc1ccc(-c2[nH]ncc2-c2ccccc2)c(O)c1
[7] COc1ccc(-c2cn[nH]c2-c2ccc(OCc3ccc(F)cc3)cc2O)cc1OC
[8] COc1ccc(-c2cn[nH]c2-c2ccc(OCc3ccccc3)cc2O)cc1OC

| assay / entry | 1 | 2 | 3 | 4 | 5 | 6 | 7 | 8 |
| --- | --- | --- | --- | --- | --- | --- | --- | --- |
| IL-2 act | 1 | . | . | -1 | -1 | -1 | 0 | -2 |
| PINK1 expr mod | 2% | 28µM* | -1% | ? | 8% | 5% | 4% | 0% |
| TCR act | 17% | . | . | 0% | -30% | 4% | -1% | 3% |
| RXFP1 ag | . | 1% | . | 1% | 2% | 0% | 2% | 3% |
| miR-21 reporter | . | ? | . | 0% | 22% | 5% | ? | ? |
| RXFP1 antagonist | -90* | -87* | . | -107* | -78* | -30 | -73* | -26 |

Molecules shown so far that have an NH in an aromatic ring:
[5] C=C(C)COc1ccc(-c2[nH]ncc2-c2ccc(OC)c(OC)c2)c(O)c1
[6] C=C(C)COc1ccc(-c2[nH]ncc2-c2ccccc2)c(O)c1
[7] COc1ccc(-c2cn[nH]c2-c2ccc(OCc3ccc(F)cc3)cc2O)cc1OC
[8] COc1ccc(-c2cn[nH]c2-c2ccc(OCc3ccccc3)cc2O)cc1OC

| assay / entry | 5 | 6 | 7 | 8 |
| --- | --- | --- | --- | --- |
| IL-2 act | -1 | -1 | 0 | -2 |
| PINK1 expr mod | 8% | 5% | 4% | 0% |
| TCR act | -30% | 4% | -1% | 3% |
| RXFP1 ag | 2% | 0% | 2% | 3% |
| miR-21 reporter | 22% | 5% | ? | ? |
| RXFP1 antagonist | -78* | -30 | -73* | -26 |

Next section.
[9] C=C(C)COc1ccc(-c2[nH]ncc2-c2ccc(OC)cc2)c(O)c1
[10] Cc1ccc(CN2C[C@H](Sc3ccccn3)C[C@H]2C(=O)Nc2ccc3sc(C)nc3c2)s1
[11] CCCCCC(O)(c1ccccc1)C(CN1CCOCC1)c1ccccc1 (stereo not given)
[12] CC(C)CCC(O)(c1ccccc1)C(CN1CCOCC1)c1ccccc1 (stereo not given)
[13] CCCCCCC(O)(c1ccccc1)C(CN1CCOCC1)c1ccccc1 (stereo not given)
[14] CC1(C)COC(Cn2c3ccccc3c3ccccc32)O1 (stereo not given)
[15] COc1cccc2sc(N(Cc3cccnc3)C(=O)C3CCCCC3)nc12
[16] O=C(CCc1ccccc1)N(Cc1cccnc1)c1nc2c(F)cc(F)cc2s1

| assay / entry | 9 | 10 | 11 | 12 | 13 | 14 | 15 | 16 |
| --- | --- | --- | --- | --- | --- | --- | --- | --- |
| IL-2 act | -1 | . | -4 | -7 | -5 | 2 | . | . |
| PINK1 expr mod | -1% | 0% | 4% | -2% | 10% | 16% | 8% | 0% |
| TCR act | -9% | . | 5% | 6% | -4% | 2% | . | . |
| RXFP1 ag | 3% | . | 0% | -1% | 0% | -2% | 0% | 0% |
| miR-21 reporter | 26% | . | 17% | 15% | 17% | 23% | ? | -4% |
| RXFP1 antagonist | -64* | . | -64* | -80* | ? | -65* | -13 | -86* |

[17] O=C(C1CCCCC1)N(Cc1cccnc1)c1nc2c(F)cccc2s1
[18] COc1cc(OC)c(OC)cc1CN1CCC(n2cc(C(=O)N3CCCCC3)nn2)CC1
[19] COc1cccc(N2CCN(c3ncnc4c3[nH]c3ccc(F)cc34)CC2C)c1 (stereo not given)
[20] COC(=O)c1sc(NC(=S)NC(=O)c2cccc(C)c2)nc1C
[21] COC(=O)c1sc(NC(=S)NC(=O)c2ccccc2F)nc1C
[22] Cc1cccc(OCCc2c(C)[nH]c(=S)[nH]c2=O)c1
[23] CCCCc1c(C)[nH]c(=S)[nH]c1=O
[24] Cc1[nH]c(=S)[nH]c(=O)c1Cc1ccccc1

| assay / entry | 17 | 18 | 19 | 20 | 21 | 22 | 23 | 24 |
| --- | --- | --- | --- | --- | --- | --- | --- | --- |
| IL-2 act | . | . | -1 | 0 | 1 | -1 | 0 | -1 |
| PINK1 expr mod | -1% | 1% | -4% | 9% | 3% | 1% | 0% | . |
| TCR act | . | . | 7% | -16%[46.1 µM] | -29% | -5% | 0% | 2% |
| RXFP1 ag | 1% | . | 5% | 1% | 35µM* | 3% | 0% | -1% |
| miR-21 reporter | -2% | . | ? | -18% | -46% | 26% | -3% | -3% |
| RXFP1 antagonist | -72* | . | -69* | 0 | -4 | -118* | -6 | -63* |

[25] CC(=O)Cc1nsc(NC(=O)c2ccc(-c3cc(Cl)ccc3Cl)o2)n1
[26] CC(=O)Cc1nsc(NC(=O)c2ccc(-c3cc(C(F)(F)F)ccc3Cl)o2)n1
[27] CCC1CN(Cc2ccc(COC)o2)Cc2cc(OC)ccc2O1 (stereo not given)
[28] CC(C)(C)c1ccc(/C([O-])=C(/C(=S)NCc2ccco2)[n+]2ccccc2)cc1
[29] CC(=O)Nc1ccc(NC(=O)CSc2ccc3nnc(-c4cccnc4)n3n2)cc1
[30] CCC(Sc1ccc2nnc(-c3cccnc3)n2n1)C(=O)OC (stereo not given)
[31] Cc1ccc(NC(=O)CSc2ccc3nnc(-c4cccnc4)n3n2)cc1
[32] COc1cc(=O)n2c(c1C(=O)NC(C)c1ccco1)CCN(Cc1ccnc3ccccc13)CC2 (stereo not given)

| assay / entry | 25 | 26 | 27 | 28 | 29 | 30 | 31 | 32 |
| --- | --- | --- | --- | --- | --- | --- | --- | --- |
| IL-2 act | -3 | -2 | . | . | 1 | 1 | -1 | . |
| PINK1 expr mod | 7% | 5µM* | 1% | . | 0% | -1% | -1% | 0% |
| TCR act | 2% | . | . | . | -18% | 4% | 3% | . |
| RXFP1 ag | 5% | 2% | . | 25µM* | 8.9µM* | 14µM* | ? | . |
| miR-21 reporter | -4% | 20% | . | -9% | 1% | 3% | -7% | . |
| RXFP1 antagonist | 7 | 5 | . | . | 1 | 22 | 0 | . |

[33] COC(=O)c1ccc(Cn2cc(/C=C\[N+](=O)[O-])c3ccccc32)o1
[34] CCOc1ccccc1CN1CCCC(c2nc(C)ncc2-c2ccc(F)cc2)C1 (stereo not given)
[35] Cc1ccc(-c2cc(C(=O)NCc3cnn(C)c3C)c3cc(Br)ccc3n2)cc1
[36] COC(=O)C(Cc1csc2ccc(Cl)cc12)NC(=O)c1ccc(Cl)cc1 (stereo not given)
[37] COC(=O)C(Cc1ccccc1)NC(=O)c1ccc(C)cc1 (stereo not given)
[38] COc1ccccc1-c1ccnc(-n2ncc(C(=O)N3CCN(C4CCCC4)CC3)c2-c2ccco2)n1
[39] CSc1nc(C(=O)N2CCc3c(cnc(C)c3CNC(=O)c3ccc4c(c3)OCO4)C2)cs1
[40] Cc1cc(C(=O)COC(=O)c2ccc(O)cc2O)c(C)n1-c1ccccc1

| assay / entry | 33 | 34 | 35 | 36 | 37 | 38 | 39 | 40 |
| --- | --- | --- | --- | --- | --- | --- | --- | --- |
| IL-2 act | -6 | . | 0 | 0 | 0 | . | . | -8 |
| PINK1 expr mod | -2% | 0% | 2% | 1% | 3% | -1% | 0% | 25% |
| TCR act | 3% | . | -15% | 0% | 1% | . | . | -2% |
| RXFP1 ag | -2% | . | 28µM*! | -1% | 3% | . | . | -3% |
| miR-21 reporter | ? | . | -24% | -15% | -3% | . | . | . |
| RXFP1 antagonist | -95* | . | 7 | -68* | 2 | . | . | -87* |

[41] COc1ccc(-n2c(C)cc(C(=O)COC(=O)c3ccc(O)cc3O)c2C)cc1
[42] COc1ccc(CC(=O)NNC(=O)c2cnccn2)cc1
[43] COc1ccc(CC(=O)NNC(=O)c2ccccn2)cc1
[44] CC(C)N1CCc2c(sc(NC(=O)c3ccc(C(=O)c4ccccc4)cc3)c2C(N)=O)C1
[45] CC(C)N1CCc2c(sc(NC(=O)c3ccc4ccccc4c3)c2C(N)=O)C1

| assay / entry | 41 | 42 | 43 | 44 | 45 |
| --- | --- | --- | --- | --- | --- |
| IL-2 act | -1 | 0 | -2 | -1 | -4 |
| PINK1 expr mod | ? | 2% | -1% | -1% | 11% |
| TCR act | -8% | -3%[46.1 µM] | 2% | . | 3% |
| RXFP1 ag | -1% | 1% | 2% | 0% | -3% |
| miR-21 reporter | . | -1% | -7% | 7% | -5% |
| RXFP1 antagonist | -33 | 8 | -61* | -15 | -74* |
